# Values quoted from earlier work, collected in publication PMC12520553.
# Read-outs that look alike come from different tables or passages of the source.
# What was measured:
# [1] = target: RAGE V domain (Homo sapiens) (UniProt Q15109)
# [2] = target: RAGE V domain (Homo sapiens) (UniProt Q15109); remark: listed apart in the source
Kd [1] [nM],Kd [2] [nM],Substance
3000,–,S100A6 (from UniProt P06703)
–,52.2,soluble Amyloid-beta (from UniProt P05067)
